Kd data for two molecules are collected here from publication PMC2671563, “Identification of Human S100A9 as a Novel Target for Treatment of Autoimmune Disease via Binding to Quinoline-3-Carboxamides” (PLoS Biology, 2009).

Assay [1] has as its target T1, hS100A9 (Homo sapiens, UniProt P06702).
T1 construct: made in house; host or cells: Escherichia coli (or purified from granulocytes)
T1 sequence (P06702 1-114): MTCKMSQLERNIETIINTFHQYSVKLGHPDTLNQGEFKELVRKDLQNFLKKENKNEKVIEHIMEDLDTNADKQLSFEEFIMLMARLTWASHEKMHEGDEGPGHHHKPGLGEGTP
Put plainly: SPR: analytes injected over immobilised hS100A9. Particulars: 100 nM analyte, 1:1 model with mass transfer; read-out: KD, binding to immobilised hS100A9. As for the experimental part:
The SPR analysis was carried out with the Biacore 3000 system (GE Healthcare). Sensor chips, amine coupling kit, immobilization and running buffers, and regeneration solutions were obtained from GE Healthcare. Working solutions of all reagents used for Biacore analysis were prepared in 0.01 M Hepes, 0.15 M NaCl (pH 7.4) containing 0.005% v/v Surfactant P-20 (HBS-P; GE Healthcare) by buffer exchange on Fast Protein Desalting Micro-Spin Columns from Pierce. ABR-215757 was immobilised onto a CM5 chip through an amino-linker (ABR-224649). Other reagents (i.e., RAGE, TLR4/MD2, and various antibodies) were immobilised to the aimed density using random amine coupling chemistry. Activity of ligands after immobilisation was tested by injecting specific antibodies (unpublished data). In some experiments, S100A9 was immobilized either by random amine coupling or with a known orientation (i.e., by sulhydryl group conjugation to the only cysteine in S100A9 at position 3).
Supplementary file pbio.1000097.sg004.pdf: Figure S4 Binding of hS100A9 to hRAGE/Fc and hTLR4/MD2 Is Not Due to hFc or hMD2 (A) 100 nM RAGE/Fc or Fc was injected over hS100A9 immobilized via the SH-group of the only cysteine in position 3 (left panel). (B) Left: 100 nM TLR4/MD2 or MD2 injected over amino-coupled hS100A9. […] Fab 43/8 was injected at 50–200 nM to verify activity of immobilized hS100A9 (right). […]
On the technique in general: SPR reads the build-up and loss of mass on a sensor chip optically.

Assay [2] addresses T2, recombinant human RAGE/Fc (human, UniProt Q15109 23-342).
T2 construct: RAGE (receptor for advanced glycation end products), human; human IgG1 Fc was used as the control for the Fc part; also called hRAGE; rhRAGE/Fc; source: bought: R&D Systems (carrier-free recombinant)
Kind of assay: SPR; 100 nM RAGE/Fc or Fc injected over hS100A9 immobilised via the SH-group of the only cysteine in position 3; fit to a 1:1 model with mass transfer. Particulars: both partners purified.

In general, Kd refers to the free concentration of one partner at which half of the binding sites on the other are occupied at equilibrium, for simple one-to-one binding. For “RAGE: carrier-free recombinant human RAGE/Fc”, in assay [1], the dissociation constant Kd was 3.4 nM.

B1: human S100A9 (natural protein, UniProt P06702 1-114, looked up)
chain: T1 sequence (P06702 1-114)
notes: S100A9, human; called homodimeric; also called hS100A9; homodimeric S100A9; source: either produced recombinantly in Escherichia coli or purified from granulocytes
As for B1, the dissociation constant Kd in assay [2] is 3.4 nM.
